Results published in PubChem BioAssay AID1466 (National Center for Advancing Translational Sciences (NCATS), 2008).
This is one part of the list. Some tests of the compounds listed are not included; inactive here does not mean inactive elsewhere. Results filed as inconclusive are left out. Calls of active or inactive are those of the source. Calls come from the whole dose curve; as a rule, active = well fitted inhibition curve with a large enough effect; inconclusive = small, poorly fitted or top-dose-only effect, or effect the other way, or another doubt; inactive = no such curve, though single readings can be large or run the other way.

What follows are compounds tested against Lysosomal alpha-glucosidase (Homo sapiens) (UniProt P10253) (assay: qHTS Assay for Inhibitors of Human alpha-Glucosidase as a Potential Chaperone Treatment of Pompe Disease). Conditions: purified human GAA, 4-MU-alpha-glucoside fluorescence; at 76.9 µM (top of the series).
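Note: plate controls were uninhibited enzyme wells for no effect and no-enzyme background for full effect.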

Row | SMILES | activity change, negative = inhibition
1 | CN(C)c1cccc(C(=O)NCC2(N(C)C)CCCCC2)c1 | inactive: 0.763%
2 | O=C(OC1CN2CCC1CC2)C(CO)(c1ccccc1)c1ccccc1 (stereo not drawn) | inactive: -0.329%
3 | CCN1CCCC(OC(=O)C2(O)c3ccccc3C=Cc3ccccc32)C1 (stereo not drawn) | inactive: 5.34%
4 | C=CCN1CCN(CCOC(=O)C(O)(c2ccccc2)c2ccccc2)CC1 | inactive: 8.3%
5 | Cc1ccccc1C(=O)NCC1(N2CCCCC2)CCCCC1 | inactive: -7.14%
6 | CN(C)C1CCCC1OC(=O)C(O)(c1ccccc1)c1ccccc1 (stereo not drawn) | inactive: 4.13%
7 | CC(C)N1C(=O)CC2(CCN(CCOC(=O)C(O)(c3ccccc3)c3ccccc3)CC2)C1=O | inactive: -12.1%
8 | O=C(NCC1(N2CCCCC2)CCCCC1)c1cc([N+](=O)[O-])ccc1Cl | inactive: 0.311%
